Measured values reported in US20030194749A1 (priority 2002, published 2003).

Amino acid sequences for entries named in this document (tags omitted).
UniProt P78527, whole entry: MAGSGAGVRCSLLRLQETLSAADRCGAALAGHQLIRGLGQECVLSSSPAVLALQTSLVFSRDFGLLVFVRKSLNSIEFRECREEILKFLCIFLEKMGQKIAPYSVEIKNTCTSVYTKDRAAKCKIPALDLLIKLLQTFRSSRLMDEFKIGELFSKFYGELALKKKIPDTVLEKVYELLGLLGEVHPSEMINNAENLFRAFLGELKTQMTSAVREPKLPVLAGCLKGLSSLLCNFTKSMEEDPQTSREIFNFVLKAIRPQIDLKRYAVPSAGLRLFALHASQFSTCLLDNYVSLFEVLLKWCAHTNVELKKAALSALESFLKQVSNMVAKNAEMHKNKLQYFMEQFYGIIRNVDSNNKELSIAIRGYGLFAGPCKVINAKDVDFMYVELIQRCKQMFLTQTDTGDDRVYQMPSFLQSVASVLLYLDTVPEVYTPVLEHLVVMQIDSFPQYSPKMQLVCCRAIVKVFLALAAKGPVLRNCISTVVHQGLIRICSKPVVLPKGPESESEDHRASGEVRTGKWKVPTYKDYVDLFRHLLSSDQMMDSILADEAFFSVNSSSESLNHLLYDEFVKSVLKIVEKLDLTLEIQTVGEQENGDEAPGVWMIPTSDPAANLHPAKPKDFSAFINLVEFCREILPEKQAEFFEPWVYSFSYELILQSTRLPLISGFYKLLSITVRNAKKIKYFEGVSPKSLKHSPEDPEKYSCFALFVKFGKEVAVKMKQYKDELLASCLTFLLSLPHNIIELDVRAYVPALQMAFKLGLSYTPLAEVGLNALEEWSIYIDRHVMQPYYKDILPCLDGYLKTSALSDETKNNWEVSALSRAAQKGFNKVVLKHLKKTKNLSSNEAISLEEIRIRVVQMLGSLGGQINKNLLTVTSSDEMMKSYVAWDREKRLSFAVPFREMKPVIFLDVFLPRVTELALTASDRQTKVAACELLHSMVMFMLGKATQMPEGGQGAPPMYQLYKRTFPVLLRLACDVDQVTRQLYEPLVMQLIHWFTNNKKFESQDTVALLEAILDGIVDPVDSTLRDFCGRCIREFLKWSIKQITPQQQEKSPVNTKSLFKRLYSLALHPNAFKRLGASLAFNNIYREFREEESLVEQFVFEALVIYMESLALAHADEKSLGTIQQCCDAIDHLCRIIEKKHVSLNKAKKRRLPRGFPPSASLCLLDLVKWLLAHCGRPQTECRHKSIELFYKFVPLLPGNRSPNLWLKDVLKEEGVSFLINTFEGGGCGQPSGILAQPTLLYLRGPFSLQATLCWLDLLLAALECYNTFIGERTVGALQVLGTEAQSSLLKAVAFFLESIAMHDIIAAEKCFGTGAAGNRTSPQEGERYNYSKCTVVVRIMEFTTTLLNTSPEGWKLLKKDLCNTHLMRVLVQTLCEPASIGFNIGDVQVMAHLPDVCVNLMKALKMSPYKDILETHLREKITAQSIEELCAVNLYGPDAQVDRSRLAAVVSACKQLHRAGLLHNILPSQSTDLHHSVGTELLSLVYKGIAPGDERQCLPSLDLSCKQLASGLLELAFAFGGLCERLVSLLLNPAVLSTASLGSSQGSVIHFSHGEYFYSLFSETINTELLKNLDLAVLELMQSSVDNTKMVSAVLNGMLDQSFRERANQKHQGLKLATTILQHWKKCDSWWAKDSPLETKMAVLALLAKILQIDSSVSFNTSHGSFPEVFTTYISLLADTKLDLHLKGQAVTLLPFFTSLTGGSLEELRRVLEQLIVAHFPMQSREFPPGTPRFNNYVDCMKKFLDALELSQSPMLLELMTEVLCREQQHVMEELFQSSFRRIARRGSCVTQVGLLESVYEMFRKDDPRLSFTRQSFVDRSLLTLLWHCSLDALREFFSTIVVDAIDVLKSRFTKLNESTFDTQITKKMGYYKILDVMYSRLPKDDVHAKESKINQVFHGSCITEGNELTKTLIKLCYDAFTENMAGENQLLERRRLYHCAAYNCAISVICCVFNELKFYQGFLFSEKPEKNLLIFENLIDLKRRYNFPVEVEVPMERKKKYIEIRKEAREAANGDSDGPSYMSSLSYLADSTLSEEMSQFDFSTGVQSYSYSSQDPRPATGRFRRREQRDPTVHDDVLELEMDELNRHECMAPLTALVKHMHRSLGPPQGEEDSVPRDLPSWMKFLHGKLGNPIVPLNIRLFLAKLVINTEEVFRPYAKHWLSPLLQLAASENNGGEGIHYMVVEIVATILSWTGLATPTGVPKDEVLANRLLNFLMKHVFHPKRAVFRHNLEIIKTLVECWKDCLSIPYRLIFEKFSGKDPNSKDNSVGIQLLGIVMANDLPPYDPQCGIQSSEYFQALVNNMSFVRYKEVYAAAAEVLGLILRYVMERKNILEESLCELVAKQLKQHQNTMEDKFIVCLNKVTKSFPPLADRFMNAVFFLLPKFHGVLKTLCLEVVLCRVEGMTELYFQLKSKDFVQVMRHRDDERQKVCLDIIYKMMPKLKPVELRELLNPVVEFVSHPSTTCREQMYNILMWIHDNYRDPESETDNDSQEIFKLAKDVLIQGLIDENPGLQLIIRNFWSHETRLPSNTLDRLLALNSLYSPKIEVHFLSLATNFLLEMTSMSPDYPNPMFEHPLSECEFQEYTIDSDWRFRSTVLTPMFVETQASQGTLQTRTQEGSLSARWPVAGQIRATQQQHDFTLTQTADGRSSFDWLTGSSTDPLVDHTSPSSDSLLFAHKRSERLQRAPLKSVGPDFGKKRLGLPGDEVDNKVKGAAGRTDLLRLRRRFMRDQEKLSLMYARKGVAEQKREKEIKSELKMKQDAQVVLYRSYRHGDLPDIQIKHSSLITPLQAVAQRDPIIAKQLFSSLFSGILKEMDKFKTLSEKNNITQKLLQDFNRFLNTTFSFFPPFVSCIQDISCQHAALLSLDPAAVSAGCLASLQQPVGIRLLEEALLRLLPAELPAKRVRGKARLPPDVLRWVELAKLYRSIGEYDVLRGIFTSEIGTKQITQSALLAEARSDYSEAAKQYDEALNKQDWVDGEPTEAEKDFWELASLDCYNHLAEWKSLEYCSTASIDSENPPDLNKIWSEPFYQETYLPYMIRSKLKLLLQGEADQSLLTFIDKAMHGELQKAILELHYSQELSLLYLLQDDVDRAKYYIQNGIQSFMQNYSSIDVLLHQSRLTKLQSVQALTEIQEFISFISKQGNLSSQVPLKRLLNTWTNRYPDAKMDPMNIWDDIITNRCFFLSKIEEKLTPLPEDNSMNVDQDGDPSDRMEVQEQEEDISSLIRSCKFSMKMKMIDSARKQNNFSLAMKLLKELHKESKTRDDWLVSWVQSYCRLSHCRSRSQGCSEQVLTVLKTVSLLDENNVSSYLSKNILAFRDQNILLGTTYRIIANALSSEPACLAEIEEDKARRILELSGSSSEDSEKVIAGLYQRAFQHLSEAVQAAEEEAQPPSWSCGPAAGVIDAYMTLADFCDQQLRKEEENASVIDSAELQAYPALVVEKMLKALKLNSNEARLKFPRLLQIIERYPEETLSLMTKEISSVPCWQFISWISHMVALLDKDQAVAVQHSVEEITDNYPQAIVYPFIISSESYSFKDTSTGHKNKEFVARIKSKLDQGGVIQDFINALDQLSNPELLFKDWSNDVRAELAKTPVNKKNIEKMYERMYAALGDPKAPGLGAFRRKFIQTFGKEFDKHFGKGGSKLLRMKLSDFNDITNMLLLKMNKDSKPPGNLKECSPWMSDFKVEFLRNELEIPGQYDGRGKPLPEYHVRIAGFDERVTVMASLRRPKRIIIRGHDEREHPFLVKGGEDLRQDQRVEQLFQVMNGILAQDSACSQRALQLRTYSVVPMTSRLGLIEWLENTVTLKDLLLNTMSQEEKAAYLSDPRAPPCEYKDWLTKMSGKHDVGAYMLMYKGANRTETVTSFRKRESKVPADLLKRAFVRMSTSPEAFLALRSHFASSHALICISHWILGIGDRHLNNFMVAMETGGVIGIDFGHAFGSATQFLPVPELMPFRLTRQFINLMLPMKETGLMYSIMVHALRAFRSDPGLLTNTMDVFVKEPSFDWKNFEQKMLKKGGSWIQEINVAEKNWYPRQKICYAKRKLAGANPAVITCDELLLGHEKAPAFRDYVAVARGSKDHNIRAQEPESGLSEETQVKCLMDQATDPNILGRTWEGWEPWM

Biological target: T1, purified DNA-PK (Homo sapiens, UniProt P78527)
T1 construct: purchased Promega
Experiment: DNA-PK kinase assay (p53 substrate)
Format: biochemical
Conditions: IC50 for DNA-PK
Description: This mixture was incubated for 10 minutes at RT.
The kinase reaction was stopped by adding 10 μl of 6×SDS sample buffer and boiling for 8 min at 95° C.
The dried gel was either exposed overnight to Biomax film or in the phosphoimager cassette for several hours and quantified using the program Image Quant v1.2 from Molecular Dynamics, Sunnyvale, Calif. (USA). Curves were plotted in the program KaleidaGraph v3.5 (Synergy Software, Reading, Pa.) using the Hill equation.
DNA-PK kinase assays were carried out with purified DNA-PK.
After the kinase reactions were carried out, the samples were separated on a 5-12.5% gradient gel. The gel was cut in half and the upper part (>80 kDa) was transferred to PVDF membrane. Flag-ATR and labeling with biotin-wortmannin were detected by chemiluminescence using α-Flag M5 or streptavidin HRP antibody. The lower half of the gel was stained with coomassie, dried and analyzed by autoradiography.
Therefore in total, 3-4 experiments were carried out in which the substrate phosphorylation was quantified. For the ATR kinase assay, these values were corrected for equal loading by taking the anti-Flag Western signal as a reference.

In the case of `COC[C@H]1OC(=O)c2coc3c2[C@@]1(C)C1=C(C3=O)[C@@H]2CCC(=O)[C@@]2(C)C[C@H]1OC(C)=O` [wortmannin, Wortmannin], the IC50 is reported as ~140 nM and 140 nM and the IC50 (read from a graph) is reported as 140 nM.

Values joined by “and” are separate entries in the source; they are usually repeats but may differ in a detail not shown here. Identical values can stand only once.
